Measured values as given in US20090325960A1, “METHOD FOR TREATING INFLAMMATORY DISEASES USING RHO KINASE INHIBITOR COMPOUNDS” (priority 2008, published 2009).

Amino acid sequences for entries named in this document (tags omitted). Residues count along the entry.
UniProt O75116, 11-552 limits assumed: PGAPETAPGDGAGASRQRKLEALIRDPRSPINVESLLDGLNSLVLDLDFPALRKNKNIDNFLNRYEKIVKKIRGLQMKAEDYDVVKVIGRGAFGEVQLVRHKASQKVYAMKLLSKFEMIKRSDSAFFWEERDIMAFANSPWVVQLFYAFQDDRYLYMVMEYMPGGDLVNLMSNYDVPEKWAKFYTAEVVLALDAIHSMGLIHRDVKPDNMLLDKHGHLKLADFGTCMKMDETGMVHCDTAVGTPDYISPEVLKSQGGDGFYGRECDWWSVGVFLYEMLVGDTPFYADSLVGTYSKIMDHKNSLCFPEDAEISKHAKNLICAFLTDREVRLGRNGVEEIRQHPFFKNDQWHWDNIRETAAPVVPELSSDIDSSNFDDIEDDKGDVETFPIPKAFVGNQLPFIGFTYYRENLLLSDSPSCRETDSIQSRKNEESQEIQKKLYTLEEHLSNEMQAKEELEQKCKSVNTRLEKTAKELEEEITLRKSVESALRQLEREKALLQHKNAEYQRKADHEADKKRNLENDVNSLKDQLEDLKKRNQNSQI

Target: T1, ROCK2 (Homo sapiens, UniProt O75116)
T1 construct: purchased Upstate/Chemicon 14-451
Assay: Rho kinase inhibition assay (IMAP fluorescence polarization), ROCK2
Assay type: biochemical
Details: average

`Cc1ccc(CN2CC[C@@H](Nc3cccc4cnccc34)C2)cc1OCCO` [Compound 2.064, (R)-2-(5-((3-(isoquinolin-5-ylamino)pyrrolidin-1-yl)methyl)-2-methylphenoxy)ethanol] gave a Ki (IMAP fluorescence polarization, 10 μM ATP, read-out: ROCK2 Ki, Avg) of 2.2 nM and a Ki (read-out: ROCK2 Ki) of 2.2 nM.

Read-outs that look alike come from different tables or passages of the source.
